Activity change, negative = inhibition data for 49 molecules are collected here from PubChem BioAssay AID720709 (National Center for Advancing Translational Sciences (NCATS), 2013).

The chains behind the UniProt entries cited, without tags or fusion partners. Where a name states a change or a piece, a line headed by the entry shows the natural chain unless it says otherwise.
UniProt O95398: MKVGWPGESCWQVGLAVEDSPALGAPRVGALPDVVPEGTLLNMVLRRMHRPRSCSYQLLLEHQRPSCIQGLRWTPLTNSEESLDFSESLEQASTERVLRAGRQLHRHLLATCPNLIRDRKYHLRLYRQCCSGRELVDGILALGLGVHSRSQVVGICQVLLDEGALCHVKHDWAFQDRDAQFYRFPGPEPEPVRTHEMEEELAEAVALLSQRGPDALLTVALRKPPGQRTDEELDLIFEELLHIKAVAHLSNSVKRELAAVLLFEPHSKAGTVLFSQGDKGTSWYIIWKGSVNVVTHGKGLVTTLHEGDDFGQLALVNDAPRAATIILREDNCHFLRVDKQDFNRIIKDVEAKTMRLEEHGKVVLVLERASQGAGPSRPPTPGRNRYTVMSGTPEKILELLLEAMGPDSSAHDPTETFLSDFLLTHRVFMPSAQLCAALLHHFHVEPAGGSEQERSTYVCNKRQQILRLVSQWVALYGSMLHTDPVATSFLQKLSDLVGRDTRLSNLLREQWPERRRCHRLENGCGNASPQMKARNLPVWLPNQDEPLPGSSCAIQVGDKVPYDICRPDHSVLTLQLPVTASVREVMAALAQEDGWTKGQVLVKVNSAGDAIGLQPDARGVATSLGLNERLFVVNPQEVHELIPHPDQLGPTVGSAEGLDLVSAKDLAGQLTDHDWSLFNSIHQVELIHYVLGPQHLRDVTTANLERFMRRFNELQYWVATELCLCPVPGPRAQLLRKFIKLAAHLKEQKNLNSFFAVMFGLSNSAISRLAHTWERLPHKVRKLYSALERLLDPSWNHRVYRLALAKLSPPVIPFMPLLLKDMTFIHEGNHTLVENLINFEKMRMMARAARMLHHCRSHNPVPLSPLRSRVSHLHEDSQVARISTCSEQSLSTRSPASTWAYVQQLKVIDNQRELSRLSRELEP

Each structure is given as a SMILES string. Only a part is listed here, and it is no random draw. Results filed as inconclusive are left out. Calls of active or inactive are those of the source. Calls come from the whole dose curve; as a rule, active = well fitted inhibition curve with a large enough effect; inconclusive = small, poorly fitted or top-dose-only effect; inactive = no such curve, though single readings can be large or run the other way.

In the test the target is Rap guanine nucleotide exchange factor 3 (Homo sapiens) (UniProt O95398). The experiment in a line: qHTS for Antagonist of cAMP-regulated guanine nucleotide exchange factor 3 (EPAC1): primary screen.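 Note: plate controls were vehicle for no effect and positive control for full effect; nearly all actives have a fitted effect of over 50% in size.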 The note with it: EPAC1 GEF assay, Rap1b-BODIPY-GDP exchange fluorescence; at 115 µM (top of the series). An excerpt:
In multi-cellular eukaryotic organisms, the effects of cAMP are transduced by two ubiquitously-expressed intracellular cAMP receptors, the classic protein kinase A/cAMP-dependent protein kinase (PKA/cAPK) and the more recently discovered exchange protein directly activated by cAMP/cAMP-regulated guanine nucleotide exchange factor (EPAC/cAMP-GEF). Both PKA and EPAC are ubiquitously expressed in all tissues, and an increase in intracellular cAMP levels will lead to the activation of both PKA and EPAC. Therefore, careful dissections of the individual role and relative contribution of EPAC and PKA within the overall cAMP signaling in various model systems are critical for further elucidating the mechanism of cAMP signaling. To date no EPAC-specific antagonists and agonist, as well as isoform-specific agonists have been reported, and developing EPAC-specific pharmacological probes to determine the physiological functions that EPAC play in the overall cAMP-mediated signaling remains a major challenge within the research field. Furthermore, identified regulators of EPAC may lead to new mechanism-based therapeutic strategies specifically targeting the EPAC / cAMP-signaling components as EPAC has been implicated to play important roles in major human pathological conditions such as diabetes, heart disease, and cancer. This qHTS will be used to screen the Molecular Libraries Small Molecule Repository (MLSMR) as a concentration-titration series using the NCGC unique quantitative screening (qHTS) platform to find inhibitors for EPAC1. In addition, this assay will also be used as a counterscreen for the EPAC2 qHTS. This fluorescent based assay is developed and validated for EPAC1 that measures exchange using EPAC effector Rap1 complex with BODIPY-GDP, a GDP analog with a tethered fluorophores. Inhibitors are identified by monitoring the change in fluorescence signal as the exchanged free BODIPY-GDP has a reduced fluorescence compared to Rap1-bound BODIPY-GDP. Decrease in signal (inhibition) is the desired outcome for the EPAC1 antagonist while no activity in this assay is desired for the EPAC2 antagonist counterscreen. de Rooij, J., Zwartkruis, F. J., Verheijen, M. H., Cool, R. H., Nijman, S. M., Wittinghofer, A., and Bos, J.L. (1998) Nature 396, 474-477 [2] Kawasaki, H., Springett, G. M., Mochizuki, N., Toki, S., Nakaya, M., Matsuda, M., Housman, D. E., and Graybiel, A. M. (1998) Science 282, 2275-2279 NIH Chemical Genomics Center [NCGC] NIH Molecular Libraries Probe Centers Network [MLPCN] MLPCN Grant: NS066510 Assay Submitter (PI): Xiaodong Cheng, The University of Texas, Medical Branch
Briefly, three uL of reagents (100 nM EPAC1, 250 nM RAP1B-BODIPY-GDP, 50 uM GDP) were dispensed into a 1536-well Greiner black solid-bottom medium binding assay plate. Controls and test compounds (23 nL) were transferred to the plate via a Kalypsys pin tool equipped with a 1536-pin array. The plates were centrifuged at 1,000 rpm for 15 seconds followed by 5 minute incubation at room temperature. The assay plates were read at 5 minute intervals for 30 minutes in the ViewLux plate reader using 480nm excitation and 540nm emission filters. The results were normalized to the […] positive control ATA and DMSO.
For orientation: qHTS replaces the single test concentration by a dilution series.
Turning to `ClCCSc1nnc(-c2cccnc2)o1`, the activity change, negative = inhibition is inactive: 9.34%.

In the case of `CC(C)c1ccc(OP(=O)(Nc2ccccn2)Oc2ccccc2F)cc1` (centres undefined), the activity change, negative = inhibition is inactive: -5.48%.

Take `COC(=O)C1(C)COP(=O)(N2CCCCCC2)OC1` (centres undefined): the activity change, negative = inhibition is inactive: 0.656%.

As for `O=C(OC1CN2CCC1CC2)c1cccc2[nH]cnc12` (centres undefined), the activity change, negative = inhibition was inactive: -4.8%.

Take `CCN(CC)C(=S)SC(NC=O)C(Cl)(Cl)Cl` (centres undefined): the activity change, negative = inhibition was inactive: 7.37%.

For the molecule `CC(C)NC(=O)NP(=O)(Oc1ccccc1)Oc1ccccc1`, the activity change, negative = inhibition is inactive: -11.1%.

Turning to `O=[N+]([O-])c1cc([N+](=O)[O-])c(-c2ccn[nH]2)s1`, the activity change, negative = inhibition was inactive: -0.242%.

Consider `C[As](=O)(O)c1cccc(C(=O)O)c1`, for which the activity change, negative = inhibition was inactive: -5.64%.

Turning to `O=[As](O)(c1ccc(O)cc1)c1ccccc1O`, the activity change, negative = inhibition is inactive: 9.84%.

Take `COc1cc(C(=O)NCC2(N3CCOCC3)CCCCC2)ccc1OCC(C)C`: the activity change, negative = inhibition is inactive: -5.84%.

In the case of `Cc1ccc(OP(=O)(Nc2ccc([N+](=O)[O-])cn2)Oc2ccc(C)cc2)cc1`, the activity change, negative = inhibition was inactive: -28.6%.

Consider `[N-]=[N+]=NC1CCCCC1NC(=O)c1cc([N+](=O)[O-])cc([N+](=O)[O-])c1` (centres undefined), for which the activity change, negative = inhibition is inactive: 2.22%.

As for `Cc1ccc2nc3c(c(C)c2c1)CC(C(Cl)Cl)S3` (centres undefined), the activity change, negative = inhibition was inactive: -13.8%.

As for `O=[N+]([O-])c1cc(Oc2ccc([N+](=O)[O-])cc2C(F)(F)F)cc([N+](=O)[O-])c1`, the activity change, negative = inhibition is inactive: -3.87%.

With `COc1ccc(N/C(=N/P(=O)(N2CCOCC2)N2CCOCC2)N2CCOCC2)cc1`, the activity change, negative = inhibition is inactive: -4.93%.

Regarding `Cc1c2c(nc3ccccc13)SC(C(Cl)Cl)C2` (centres undefined), the activity change, negative = inhibition was inactive: -21.1%.

With `O=C(OC1CN2CCC1CC2)C12CC3CC(CC(C3)C1)C2` (centres undefined), the activity change, negative = inhibition was inactive: -4.02%.

As to `Cc1cc(=O)[nH]c(N[N+](=O)[O-])n1`, the activity change, negative = inhibition was inactive: -17.3%.

With `O=P1(N(CCCl)CCCl)OCCCN1CCCl` (centres undefined), the activity change, negative = inhibition is inactive: -17.5%.

For `O=P1(N(CCCl)CCCl)Nc2ccccc2N1`, the activity change, negative = inhibition is inactive: 0.256%.

With `COc1ccc2nc(NP(=O)(c3ccccc3)c3ccccc3)sc2c1`, the activity change, negative = inhibition was inactive: 2.98%.

With `COc1cc(I)ccc1[As](=O)(O)O`, the activity change, negative = inhibition was inactive: -8.78%.

For the molecule `O=C(OC1CN2CCC1CC2)c1cccc([N+](=O)[O-])c1` (centres undefined), the activity change, negative = inhibition is inactive: -13.4%.

Turning to `CSc1ccc(Nc2c([N+](=O)[O-])cc([N+](=O)[O-])cc2[N+](=O)[O-])cc1`, the activity change, negative = inhibition was inactive: 0.477%.

As for `CCOC(=O)c1ccc(NC(=O)C(C)(CCl)SC)cc1` (centres undefined), the activity change, negative = inhibition is inactive: -17.6%.

Turning to `CCC(C)N(CC(C)C)C(=S)SC(NC(C)=O)C(Cl)(Cl)Cl` (centres undefined), the activity change, negative = inhibition was inactive: 3.42%.

As to `COP1(=S)c2c(C)nn(CCC#N)c2N=C(c2ccc(F)cc2)N1C` (centres undefined), the activity change, negative = inhibition was inactive: -0.846%.

For `O=C(O)C(=O)c1ccc(N(CCCl)CCCl)cc1`, the activity change, negative = inhibition is inactive: 11.5%.

Turning to `O=C(COc1ccccc1)OC1CN2CCC1CC2` (centres undefined), the activity change, negative = inhibition is inactive: 15.9%.

`O=C(Nc1ccncc1[N+](=O)[O-])c1ccc([N+](=O)[O-])cc1[N+](=O)[O-]`: the activity change, negative = inhibition is inactive: -20.1%.

For `CCOC(=O)Nc1cccc([As](=O)(O)O)c1`, the activity change, negative = inhibition is inactive: -20.3%.

Regarding `Cc1cc(SC(NC=O)C(Cl)(Cl)Cl)ncn1` (centres undefined), the activity change, negative = inhibition was inactive: 5.36%.

Take `O=P(Nc1ccccn1)(c1cccc2ccccc12)c1cccc2ccccc12`: the activity change, negative = inhibition was inactive: -11.7%.

`O=[N+]([O-])c1ccc(Nc2ccc(Oc3ccc([N+](=O)[O-])cc3[N+](=O)[O-])cc2)c([N+](=O)[O-])c1`: the activity change, negative = inhibition was inactive: 5.04%.

Take `O=C(O)C(O)c1ccc(N(CCCl)CCCl)cc1` (centres undefined): the activity change, negative = inhibition is inactive: 3.7%.

On to `CCOC(=O)Nc1ccc([As](=O)(O)O)c(O)c1`, for which the activity change, negative = inhibition was inactive: -7.83%.

For `CC1CCNP(=O)(N(CCCl)CCCl)O1` (centres undefined), the activity change, negative = inhibition is inactive: -1.53%.

As to `COP(=O)(OC)N1CC1c1ccccc1` (centres undefined), the activity change, negative = inhibition is inactive: 6.86%.

As for `CCCCOc1ccc(C(=O)NCC2(N3CCCCC3)CCCCC2)cc1OC`, the activity change, negative = inhibition is inactive: 15.6%.

For the molecule `Cc1cc(SC(NC(=O)c2ccccc2)C(Cl)(Cl)Cl)nc(C(C)C)n1` (centres undefined), the activity change, negative = inhibition is inactive: -14.3%.

In the case of `Cc1ccc(S(=O)(=O)N(CCCN)CCCc2c(C)nc(N)[nH]c2=O)cc1`, the activity change, negative = inhibition was inactive: -19.1%.

As to `O=P1(Nc2ncccn2)COc2ccccc2OC1`, the activity change, negative = inhibition was inactive: 7.07%.

As for `Nc1cccc([As](=O)(O)c2ccccc2)c1`, the activity change, negative = inhibition was inactive: 1.47%.

For the molecule `NS(=O)(=O)c1cccc(NC(=O)COC(=O)C(O)(c2ccccc2)c2ccccc2)c1`, the activity change, negative = inhibition was inactive: -20.5%.

As for `O=P1(Nc2ccc(Br)cn2)COc2ccccc2OC1`, the activity change, negative = inhibition was inactive: -3.64%.

For `O=[As](O)(c1cccs1)c1cccs1`, the activity change, negative = inhibition is inactive: -9.65%.

For the molecule `Cc1ccc(OCC(=O)OC2CN3CCC2CC3)cc1` (centres undefined), the activity change, negative = inhibition is inactive: 4.06%.

As for `Cc1nn(-c2ccccc2)c2c1P(=O)(N1CCOCC1)N(C)C(c1ccccc1)=N2` (centres undefined), the activity change, negative = inhibition was inactive: 8.27%.

As for `Cc1ccc(C(=O)OC2CN3CCC2CC3)cc1` (centres undefined), the activity change, negative = inhibition is inactive: 2.58%.
